Laboratory results: patent US20220081676A1, “MICROFLUIDIC DEVICES FOR TATTOO PIGMENT SAFETY” (priority 2019, published 2022)

Test system: epidermal cells in a Skin-Chip (microfluidic OT-chip)
Settings: 15-minute exposure; citric acid 0.6M
Excerpt: In some embodiments, a live-dead staining is used for determining cell viability.

## O=C(O)CO [glycolic acid]
  cell death by DRAQ7 staining, dead cells/mm^2: highest cell death
